# Measurements published in PubChem BioAssay AID588334 (Broad Institute, 2011).
# The entries are a selection whose mix differs from that of the whole data set. Some tests of the compounds listed are not included; inactive here does not mean inactive elsewhere. Activity calls are given as the source filed them.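 How the source made its calls: active means mean activation of at least 80% with every replicate also reaching 80%; inconclusive means mean reaches 80% but some replicate falls short; inactive means the rest.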
# Assay: activators of MITF-driven TRPM1 promoter reporter, primary screen, cell-based, SK-MEL-5, luciferase, single point (AID 588334);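 further: 0% = neutral control wells and 100% = parthenolide positive control wells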
# Conditions: SK-MEL-5 TRPM1-promoter luciferase, 24 h; at 12.5 µM; stronger effect = higher value; % of positive control, neutral wells = 0
row,SMILES,activation
1,O=C(NCC1(N2CCCCC2)CCCCC1)c1cc(F)c(F)cc1Cl,inactive: 12.2%
2,C=CCN1CCN(CCOC(=O)C(O)(c2ccccc2)c2ccccc2)CC1,inactive: -6.94%
3,O=C(NCC1(N2CCCCC2)CCCCC1)c1cccc(Br)c1,inactive: 14.1%
4,CCN1CCCC(OC(=O)C2(O)c3ccccc3C=Cc3ccccc32)C1 (stereo not given),inactive: -0.008%
5,Cc1cc(C(=O)NCC2(N3CCCCC3)CCCCC2)ccc1[N+](=O)[O-],inactive: 0.864%
6,COc1ccc(C(=O)NCC2(N(C)C)CCCCC2)cc1,inactive: 1.24%
7,CN(C)c1ccc(C(=O)NCC2(N(C)C)CCCCC2)cc1,inactive: -4.31%
8,CN(C)C1CCCC1OC(=O)C(O)(c1ccccc1)c1ccccc1 (stereo not given),inactive: -4.44%
9,Cc1ccccc1C(=O)NCC1(N2CCCCC2)CCCCC1,inactive: -4.02%
10,CC(C)N1C(=O)CC2(CCN(CCOC(=O)C(O)(c3ccccc3)c3ccccc3)CC2)C1=O,inactive: 6.8%
11,COc1cc(SC)ccc1C(=O)NCC1(N(C)C)CCCCC1,inactive: 2.77%
12,CCN(CC)CC(C)C(C)OC(=O)C(O)(c1ccccc1)c1ccccc1 (stereo not given),inactive: -8.04%
13,Cc1ccc(C(=O)NCC2(N3CCCCC3)CCCCC2)cc1,inactive: 16.4%
14,O=C(NCC1(N2CCCCC2)CCCCC1)c1cc([N+](=O)[O-])ccc1Cl,inactive: -5.53%
15,CN1[C@@H]2CC[C@H]1CC(OC(=O)C(O)(c1ccccc1)c1ccccc1)C2 (stereo not given in full),inactive: 3.34%
16,COc1ccc(Br)c(C(=O)NCC2(N3CCCCC3)CCCCC2)c1,inactive: 6.94%
17,CN(C)c1cccc(C(=O)NCC2(N(C)C)CCCCC2)c1,inactive: -17.1%
18,O=C(OCCN1CCCC1)C(O)(c1ccccc1)c1ccccc1,inactive: -2.11%
19,CC(C)Oc1ccc(C(=O)NCC2(N(C)C)CCCCC2)cc1,inactive: 9.33%
20,O=C(OC1CN2CCC1CC2)C(CO)(c1ccccc1)c1ccccc1 (stereo not given),inactive: 0.909%
21,COc1ccc(Cl)cc1C(=O)NCC1(N(C)C)CCCCC1,inactive: -5.19%
22,COc1cccc(C(=O)NCC2(N3CCCCC3)CCCCC2)c1,inactive: -7.11%
23,O=C(NCC1(N2CCCCC2)CCCCC1)c1cccc(Cl)c1,inactive: 9.6%
24,CN(C)C1(CNC(=O)c2ccc(Br)cc2)CCCCC1,inactive: 0.719%
25,COc1cc(C(=O)NCC2(N(C)C)CCCCC2)c([N+](=O)[O-])cc1OC,inactive: 25%
